Tested on: Human immunodeficiency virus 1
Assay: Ratio of EC50 for HIV1 to IC50 for HIV1 integrase-mediated strand transfer

Work on `O=C(O)/C(O)=C/C(=O)c1cc(Cc2ccc(F)cc2F)cn(Cc2ccccc2F)c1=O` yielded a Ratio greater than 2.
